# Measured values from patent publication US20260053731A1, “MICRONEEDLE PARTICLES FOR ENHANCED TOPICAL TRANSDERMAL DRUG DELIVERY” (BONSENS AB, priority 2023, published 2026).
# Assay: Ex vivo assessment of skin permeability post MNP application (fluorescent dyes)
# Settings: for improvement of measured fluorescence of the dermis by MNP treatment vs negative control: dye 10 μM in glycerol applied topically
# Protocol: The skin tissues were placed on the top of 6 cm cell culture dishes filled to the top with 1×PBS with the dermis layer facing downwards and being submerged in PBS, while the epidermis facing upwards for being available to our treatment. Skin, which was stored, refrigerated, or frozen was put in PBS prior to letting it rehydrate at 4° C. for approximately 6 h. […] The set up was carefully monitored throughout the experiment and reagents were carefully added in case of evaporation. Samples were taken out in 30 min and 6 h after the addition of the dyes to evaluate permeability. The skin samples were then washed thoroughly with PBS, dried on dry napkins, and were subjected to cryo-sectioning. The skin sections were then visualized by using Zeiss AXIO Scope A1 Microscope with Axiocam 105 color (Munich, Germany) and quantified with ImageJ v1.53.
substance,measurement,setting,value
Fluorescein isothiocyanate (FITC)-dextran [FITC-dextran],improvement of measured fluorescence of the dermis by MNP treatment vs negative control,30 min,~10 ×
same,improvement of measured fluorescence of the dermis by MNP treatment vs negative control,6 h,~7 ×
same,improvement of skin permeability after MNP treatment,over a 6 h experimental time,7 fold
